SR-BI uptake up = activators of SR-BI mediated HDL lipid uptake | CHO ldlA[mSR-BI] cells, DiI-HDL uptake fluorescence, 3 h; 100 = double the neutral-control signal | activation, % at 12.5 µM | 320,000 compounds, 0.096% hits;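 active = mean replicate activation of at least 60% and every replicate at or above 60%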
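Assay system: LDL receptor-deficient CHO ldlA cells overexpressing murine SR-BI / Medium: BSA-supplemented, HEPES-buffered Ham's F12, pH 7.4 / Probe or stimulus: DiI-labelled HDL at 10 µg/mL final / Timing: compound with DiI-HDL co-incubation, 3 h at 37 °C / Technique: bottom-read cell fluorescence after medium removal, ex 550/em 595 nm / Measure: HDL uptake via cellular fluorescence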
SR-BI DiI inh = inhibitors of mouse SR-BI mediated HDL lipid uptake. Q61009. ldlA[mSR-BI] CHO cells, DiI-HDL uptake fluorescence, 3 h. inhibition, % at 12.5 µM. 320,000 compounds, 0.96% hits;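 active = mean replicate inhibition of at least 70% and a set share of replicates each scoring 70 or more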
Yeast UUG start-1 = alters start codon recognition fidelity in yeast; AID 602363; activity score, % at 18.7 µM; 350,000 tested, 0.13% active; S. cerevisiae UUG-firefly luciferase reporter, luminescence/redox ratio;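 active means replicate mean at a twofold rise or more, about +100% in these data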;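 further: firefly luciferase made from a UUG start codon reports start codon fidelity; reporter light over untreated wells divided by growth signal over untreated wells; some hits fall short of that in this replicate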
INS-1E GSIS act = GLuc luminescence reporter in INS-1E cells, primary screen for activators of glucose-dependent secretion of insulin; INS-1E GLuc reporter insulin secretion, 2-3 h; activation, % at 16.6 µM; 370,000 compounds, 0.61% hits; AID 743287;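 active = lowest replicate activation of at least 40%, so every replicate reaches that level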
Yeast UUG start-2 = modulators of start codon recognition fidelity in yeast. shares compounds with Yeast UUG start-1. S. cerevisiae UUG-start firefly luciferase, luminescence, 4 h; 100% means double the DMSO signal. activation, % at 38 µM. 540 tested, under 10 active;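 active = signal increase whose fitted curve reaches an absolute level of 40 at a concentration under 10 µM; inactive = activity opposite to the expected increase, or the rest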
Of the large screens only hits and unclear results are named; the others gave an inactive call (follow-up assays come after a bar, where they were run); ! = a repeat was not active. The list is not random: actives were taken first. Their share in the collection is about 1.3%.

CCCC#Cc1cnc2c(c1)C(=O)N([C@@H](C)CO)C[C@@H](C)[C@@H](CN(C)C(=O)CCN1CCCCC1)O2	none (no result: SR-BI uptake up, SR-BI DiI inh, Yeast UUG start-1)
C[C@@H]1CCCCO[C@H](CN(C)Cc2ccc(C(=O)O)cc2)[C@@H](C)CN([C@H](C)CO)C(=O)c2cc(NS(=O)(=O)c3ccc(F)cc3)ccc2O1	none (no result: SR-BI uptake up, SR-BI DiI inh)
C[C@@H]1CCCCO[C@@H](CN(C)Cc2ccc(C(=O)O)cc2)[C@H](C)CN([C@@H](C)CO)C(=O)c2cc(NS(=O)(=O)c3ccc(F)cc3)ccc2O1	Yeast UUG start-1 112 (no result: SR-BI uptake up, SR-BI DiI inh) | Yeast UUG start-2 inactive
COC(=O)C[C@H]1CC[C@@H](NS(=O)(=O)c2ccccc2F)[C@@H](CO)O1	none (no result: SR-BI uptake up, SR-BI DiI inh, Yeast UUG start-1)
O=C(CN1c2ccccc2Sc2ccccc21)N/N=C/c1ccc(Cl)cc1	Yeast UUG start-1 180 | Yeast UUG start-2 inactive
O=C(CN1c2ccccc2Sc2ccccc21)N/N=C/c1ccc(Cl)cc1Cl	none
CCN(CC)S(=O)(=O)c1ccc(C(=O)Nc2cc(C)cc(C)c2)cc1	Yeast UUG start-1 322 (no result: INS-1E GSIS act) | Yeast UUG start-2 inactive
COc1ccccc1C(=O)Nc1ccc2c(c1)C(=O)N(C)C[C@H](OC)[C@@H](C)CN(C)[C@H](C)CO2	none (no result: SR-BI uptake up, SR-BI DiI inh, Yeast UUG start-1)
COc1ccc(CN2C(=O)[C@@H]3[C@H]4C(=O)O[C@H](c5ccccc5)[C@@H](C)N(C)C(=O)CC/C=C/[C@H]4O[C@@]34C=CCN(Cc3ccccc3)C(=O)[C@@H]24)cc1	Yeast UUG start-1 12! (no result: SR-BI uptake up, SR-BI DiI inh, INS-1E GSIS act) | Yeast UUG start-2 inactive
C=CCN(Cc1ccccc1)C(=O)[C@H]1N(Cc2ccc(OC)cc2)C(=O)[C@@H]2[C@@H](C(=O)O)C3C=CC21O3 (stereo partly specified)	none (no result: SR-BI uptake up, SR-BI DiI inh, INS-1E GSIS act)
C[C@@H](NC(=O)C[C@H]1CC[C@H](NC(=O)C2CCC2)[C@H](CO)O1)c1ccccc1	none (no result: SR-BI uptake up, SR-BI DiI inh)
